Experiments:
[1] = target: glucosylceramide synthase (GCS) (Canis lupus familiaris, UniProt A0A8I3MXG6); test: GCS activity, broken cell assay (inhibition of GlcCer synthesis in broken wild-type MDCK cell preparations); format: biochemical, canine; details: mean of n > 2 experiments
Experimental: Enzyme activity was measured as described previously (9). Madin-Darby canine kidney (MDCK) cell homogenates (120 μg of protein) were incubated with uridine diphosphate-[^3H]glucose (100,000 cpm) and liposomes consisting of 85 μg of octanoylsphingosine, 570 μg of dioleoylphosphatidylcholine, and 100 μg of sodium sulfatide in a 200 μL reaction mixture and kept for 1 h at 37° C.

Sequences of proteins named here, by UniProt entry; tags and fusion partners are left off. Residues count along the entry.
UniProt A0A8I3MXG6, 1-394: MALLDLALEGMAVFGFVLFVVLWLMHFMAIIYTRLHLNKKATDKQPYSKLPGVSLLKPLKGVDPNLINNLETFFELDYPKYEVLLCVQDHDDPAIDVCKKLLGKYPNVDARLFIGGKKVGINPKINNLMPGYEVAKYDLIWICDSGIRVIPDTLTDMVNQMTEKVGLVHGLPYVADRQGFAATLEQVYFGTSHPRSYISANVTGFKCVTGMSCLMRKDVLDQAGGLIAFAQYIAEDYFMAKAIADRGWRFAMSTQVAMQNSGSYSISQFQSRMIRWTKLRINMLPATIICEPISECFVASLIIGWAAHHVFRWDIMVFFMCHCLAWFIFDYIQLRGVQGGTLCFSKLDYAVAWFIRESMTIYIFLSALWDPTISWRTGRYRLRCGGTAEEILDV

[2] = target: GCS in WT-MDCKII cells (Canis lupus familiaris, UniProt A0A8I3MXG6); test: Inhibition of GlcCer production in whole wild-type MDCKII cells; format: cell-based, canine; details: 24 hours, read-out: WT-MDCK IC50
Experimental: (§1) Parental (WT-)MDCKII cells and MDCKII cells retrovirally transduced with human MDR-1 cDNA were obtained from the Netherlands Cancer Institute. Both cell lines were routinely maintained in medium consisting of Opti-MEM/F12 (1:1), 5% FBS, 100 U/mL of penicillin, 100 μg/mL streptomycin and […] L-glutamine. MDCKII cells were newly thawed from frozen ampules every two months.
(§2) Stock solutions of water-insoluble glycosphingolipid inhibitors (100 mM) were prepared by dissolving each inhibitor into 100% ethanol as previously described (3). The inhibitor-ethanol solutions then were diluted 50× into 2 mM delipidated bovine serum albumin-phosphate buffered saline solution to make water-soluble glycosphingolipid inhibitor-bovine serum albumin complexes. The inhibitor-bovine serum album complexes were sterile-filtered and stored at −20° C. Prior to use, portions of the inhibitor-bovine serum albumin complexes were further diluted with Opti-F12 to make treatment solutions. Equal amounts of bovine serum albumin and ethanol were added into the control cultures. WT and MDR1-MDCKII cells (5×10^5) were seeded into 10-cm culture dishes containing 10 ml of Opti-F12 with 5% FBS.
(§3) Following inhibitor treatment, whole cellular lipids of wild type and MDR1-MDCKII cells were extracted as previously described in detail (10). Briefly, cells were washed with ice-cold phosphate buffered saline, fixed by methanol, and collected with rubber scraper. Chloroform was then added to yield a theoretical ratio of chloroform:methanol:water at 1:2:0.8 (v/v/v) to form a mono-phase. Cell debris and proteins were removed by centrifugation at 2200×g for 30 min. The supernatants were portioned by adding chloroform and 0.9% NaCl. The lower organic phases containing neutral glycosphingolipids lipids were washed with methanol and 0.9% NaCl, and subjected to base- and acid-hydrolysis (10). A portion of purified glycosphingolipids normalized to 100 nmol of total phospholipids was analyzed by high performance thin layer chromatography. The thin layer chromatography separations were processed twice. The plate pretreated with 1% sodium borate was first developed in a solvent system consisting of chloroform/methanol (98/2, v/v). After air drying, the plate was then developed in a solvent system containing chloroform/methanol/water (70/30/4, v/v/v). The levels of glucosylceramide were detected by charring with 8% cupric sulfate in 8% phosphoric acid, and quantified by densitometric scanning using ImageJ, NIH Image.

[3] = target: GCS in MDR1-MDCKII cells (Canis lupus familiaris, UniProt A0A8I3MXG6); details: read-out: MDR1-MDCKII IC50; MDCKII cells stably expressing human MDR1, 24 hours
Experimental: as §1, §2, §3

SMILES	IC50 [1]	IC50 [2]	IC50 [3]
COc1ccc([C@@H](O)[C@@H](CN2CCCC2)NC(=O)CC2Cc3ccccc3C2)cc1F [Example 1, 2-(2,3-dihydro-1H-inden-2-yl)-N-((1R,2R)-1-(3-fluoro-4-methoxyphenyl)-1-hydroxy-3-(pyrrolidin-1-yl)propan-2-yl)acetamide]	0.027 µM	0.003 µM	0.0094 µM
COc1ccc([C@@H](O)[C@@H](CN2CCCC2)NC(=O)CC2Cc3ccccc3C2)cc1 [Example 2, 2-(2,3-dihydro-1H-inden-2-yl)-N-((1R,2R)-1-hydroxy-1-(4-methoxyphenyl)-3-(pyrrolidin-1-yl)propan-2-yl)acetamide]	0.048 µM	0.003 µM	0.015 µM
COc1cccc([C@@H](O)[C@@H](CN2CCCC2)NC(=O)CC2Cc3ccccc3C2)c1 [Example 3, 2-(2,3-dihydro-1H-inden-2-yl)-N-((1R,2R)-1-hydroxy-1-(3-methoxyphenyl)-3-(pyrrolidin-1-yl)propan-2-yl)acetamide]	0.054 µM	0.005 µM	0.027 µM
COc1cc([C@@H](O)[C@@H](CN2CCCC2)NC(=O)CC2Cc3ccccc3C2)ccc1F [Example 5, 2-(2,3-dihydro-1H-inden-2-yl)-N-((1R,2R)-1-(4-fluoro-3-methoxyphenyl)-1-hydroxy-3-(pyrrolidin-1-yl)propan-2-yl)acetamide]	–	0.073 µM	2.61 µM
COc1ccc([C@@H](O)[C@@H](CN2CCCC2)NC(=O)CC2CCc3ccccc3C2)cc1 (stereo partly drawn) [Example 6, N-((1R,2R)-1-hydroxy-1-(4-methoxyphenyl)-3-(pyrrolidin-1-yl)propan-2-yl)-2-(1,2,3,4-tetrahydronaphthalen-2-yl)acetamide]	0.269 µM	0.011 µM	0.045 µM
O=C(CC1Cc2ccccc2C1)N[C@H](CN1CCCC1)[C@H](O)c1ccc(OC(F)(F)F)cc1 [Example 7, 2-(2,3-dihydro-1H-inden-2-yl)-N-((1R,2R)-1-hydroxy-3-(pyrrolidin-1-yl)-1-(4-(trifluoromethoxy)phenyl)propan-2-yl)acetamide]	0.232 µM	0.004 µM	0.011 µM
O=C(CC1Cc2ccccc2C1)N[C@H](CN1CCCC1)[C@H](O)c1ccc(C(F)(F)F)cc1 [Example 8, 2-(2,3-dihydro-1H-inden-2-yl)-N-((1R,2R)-1-hydroxy-3-(pyrrolidin-1-yl)-1-(4-(trifluoromethyl)phenyl)propan-2-yl)acetamide]	–	0.035 µM	0.055 µM
O=C(CC1Cc2ccccc2C1)N[C@H](CN1CCCC1)[C@H](O)c1ccc(OC(F)F)cc1 [Example 9, N-((1R,2R)-1-(4-(difluoromethoxy)phenyl)-1-hydroxy-3-(pyrrolidin-1-yl)propan-2-yl)-2-(2,3-dihydro-1H-inden-2-yl)acetamide]	0.123 µM	0.01 µM	0.017 µM
O=C(CC1Cc2ccccc2C1)N[C@H](CN1CCCC1)[C@H](O)c1ccc(OCC(F)(F)F)cc1 [Example 12, 2-(2,3-dihydro-1H-inden-2-yl)-N-((1R,2R)-1-hydroxy-3-(pyrrolidin-1-yl)-1-(4-(2,2,2-trifluoroethoxy)phenyl)propan-2-yl)acetamide]	0.056 µM	0.00087 µM	0.0025 µM
COc1ccc([C@@H](O)[C@@H](CN2CCCC2)NC(=O)CC2CCCc3ccccc32)cc1 (stereo partly drawn) [Example 13, N-((1R,2R)-1-hydroxy-1-(4-methoxyphenyl)-3-(pyrrolidin-1-yl)propan-2-yl)-2-(1,2,3,4-tetrahydronaphthalen-1-yl)acetamide]	0.27 µM	0.011 µM	0.045 µM
O=C(CC1Cc2ccccc2C1)N[C@H](CN1CCC1)[C@H](O)c1ccc(OC(F)(F)F)cc1 [Example 17, N-((1R,2R)-3-(azetidin-1-yl)-1-hydroxy-1-(4-(trifluoromethoxy)phenyl)propan-2-yl)-2-(2,3-dihydro-1H-inden-2-yl)acetamide]	–	0.024 µM	0.041 µM

Reference: patent publication US10202340B2, “Glucosylceramide synthase inhibitors and therapeutic methods using the same” (THE REGENTS OF THE UNIVERSITY OF MICHIGAN, priority 2015, dated 2019)
